Laboratory results reported in US10196396B2 (priority 2016, dated 2019).

Protein sequences, listed by entry. Tags and fused reporters are not part of them.
UniProt P30542, whole entry: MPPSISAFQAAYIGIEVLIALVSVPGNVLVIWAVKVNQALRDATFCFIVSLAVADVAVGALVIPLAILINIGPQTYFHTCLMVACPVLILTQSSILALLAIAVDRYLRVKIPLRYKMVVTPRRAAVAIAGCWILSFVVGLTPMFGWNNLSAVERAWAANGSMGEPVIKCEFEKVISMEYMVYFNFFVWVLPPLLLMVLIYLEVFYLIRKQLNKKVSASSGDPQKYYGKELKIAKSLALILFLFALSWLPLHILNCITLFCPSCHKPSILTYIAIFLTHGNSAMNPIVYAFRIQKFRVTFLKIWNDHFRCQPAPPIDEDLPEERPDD

Experiments:
[1] = target: human A1 adenosine receptor (Homo sapiens (Human), UniProt P30542); assay: biochemical
[2] = target: human A2a adenosine receptor (Homo sapiens (Human), UniProt P29274); assay: biochemical

Row | Structure (SMILES) | Ki [1] [µM] | Ki [2] [µM]
1 | CC(C)CCNc1nccn2c([C@@H]3SC[C@@H](O)[C@H]3O)nnc12 [Compound 32, (2S,3R,4S)-2-(8-(isopentylamino)-[1,2,4]triazolo[4,3-a]pyrazin-3-yl)tetrahydrothiophene-3,4-diol] | > 10 | > 10
2 | O[C@@H]1[C@H](O)CS[C@H]1c1nnc2c(C#Cc3cccc(Cl)c3)nccn12 [Compound 30, (2S,3R,4S)-2-(8-((3-chlorophenyl)ethynyl)-[1,2,4]triazolo[4,3-a]pyrazin-3-yl)tetrahydrothiophene-3,4-diol] | 1 to 10 | 1 to 10
3 | O[C@@H]1[C@H](O)CS[C@H]1c1nnc2c(NCCc3ccc(F)cc3)nccn12 [Compound 64, (2S,3R,4S)-2-(8-((4-fluorophenethyl)amino)-[1,2,4]triazolo[4,3-a]pyrazin-3-yl)tetrahydrothiophene-3,4-diol] | > 10 | > 10
4 | O[C@@H]1[C@H](O)CS[C@H]1c1cnc2c(NCc3cscn3)nccn12 [Compound 147, (2S,3R,4S)-2-(8-((thiazol-4-ylmethyl)amino)imidazo[1,2-a]pyrazin-3-yl)tetrahydrothiophene-3,4-diol] | > 10 | > 10
5 | O[C@@H]1[C@H](O)CS[C@H]1c1nnc2c(NCc3cc(Cl)ccc3Cl)nccn12 [Compound 56, (2S,3R,4S)-2-(8-((2,5-dichlorobenzyl)amino)-[1,2,4]triazolo[4,3-a]pyrazin-3-yl)tetrahydrothiophene-3,4-diol] | > 10 | > 10
6 | O[C@@H]1[C@H](O)CS[C@H]1c1nnc2c(NCCc3ccccc3)nccn12 [Compound 11, (2S,3R,4S)-2-(8-(phenethylamino)-[1,2,4]triazolo[4,3-a]pyrazin-3-yl)tetrahydrothiophene-3,4-diol] | > 10 | > 10
7 | O[C@@H]1[C@H](O)CS[C@H]1c1nnc2c(NCCc3ccccc3F)nccn12 [Compound 50, (2S,3R,4S)-2-(8-((2-fluorophenethyl)amino)-[1,2,4]triazolo[4,3-a]pyrazin-3-yl)tetrahydrothiophene-3,4-diol] | > 10 | > 10
8 | O[C@@H]1[C@H](O)CS[C@H]1c1cnc2c(NC3CC3c3ccccc3)nccn12 (stereo partly drawn) [Compound 129, (2S,3R,4S)-2-(8-((2-phenylcyclopropyl)amino)imidazo[1,2-a]pyrazin-3-yl)tetrahydrothiophene-3,4-diol] | > 10 | > 10
9 | C[C@H](Nc1nccn2c([C@@H]3SC[C@@H](O)[C@H]3O)cnc12)c1cccc(Cl)c1 [Compound 161, (2S,3R,4S)-2-(8-(((S)-1-(3-chlorophenyl)ethyl)amino)imidazo[1,2-a]pyrazin-3-yl)tetrahydrothiophene-3,4-diol] | > 10 | 1 to 10
10 | O[C@@H]1[C@H](O)CS[C@H]1c1cnc2c(OCc3cccc(Cl)c3)nccn12 [Compound 155, (2S,3R,4S)-2-(8-((3-chlorobenzyl)oxy)imidazo[1,2-a]pyrazin-3-yl)tetrahydrothiophene-3,4-diol] | > 10 | > 10
11 | O=C(Nc1nccn2c([C@@H]3SC[C@@H](O)[C@H]3O)cnc12)c1cccc(Cl)c1 [Compound 158, 3-chloro-N-(3-((2S,3R,4S)-3,4-dihydroxytetrahydrothiophen-2-yl)imidazo[1,2-a]pyrazin-8-yl)benzamide] | > 10 | > 10
12 | CNC(=O)c1ccc(CNc2nccn3c([C@@H]4SC[C@@H](O)[C@H]4O)nnc23)cc1F [Compound 40, 4-(((3-((2S,3R,4S)-3,4-dihydroxytetrahydrothiophen-2-yl)-[1,2,4]triazolo[4,3-a]pyrazin-8-yl)amino)methyl)-2-fluoro-N-methylbenzamide] | > 10 | > 10
13 | O[C@@H]1[C@H](O)CS[C@H]1c1cnc2c(NCc3ccncn3)nccn12 [Compound 145, (2S,3R,4S)-2-(8-((pyrimidin-4-ylmethyl)amino)imidazo[1,2-a]pyrazin-3-yl)tetrahydrothiophene-3,4-diol] | > 10 | 1 to 10
14 | O[C@@H]1[C@H](O)CS[C@H]1c1nnc2c(NCCc3cccc(Br)c3)nccn12 [Compound 25, (2S,3R,4S)-2-(8-((3-bromophenethyl)amino)-[1,2,4]triazolo[4,3-a]pyrazin-3-yl)tetrahydrothiophene-3,4-diol] | > 10 | 1 to 10
15 | O[C@@H]1[C@H](O)CS[C@H]1c1cnc2c(NCc3ccccc3Cl)nccn12 [Compound 163, (2S,3R,4S)-2-(8-((2-chlorobenzyl)amino)imidazo[1,2-a]pyrazin-3-yl)tetrahydrothiophene-3,4-diol] | > 10 | 1 to 10
16 | Cc1cccc(CNc2nccn3c([C@@H]4SC[C@@H](O)[C@H]4O)cnc23)c1 [Compound 121, (2S,3R,4S)-2-(8-((3-methylbenzyl)amino)imidazo[1,2-a]pyrazin-3-yl)tetrahydrothiophene-3,4-diol] | > 10 | > 10
17 | O[C@@H]1[C@H](O)CS[C@H]1c1nnc2c(NCc3cccc(I)c3)nccn12 [Compound 6, (2S,3R,4S)-2-(8-((3-iodobenzyl)amino)-[1,2,4]triazolo[4,3-a]pyrazin-3-yl)tetrahydrothiophene-3,4-diol] | > 10 | > 10

Row | Structure (SMILES) | Ki [1] [µM] | Ki [2] [µM]
18 | O[C@@H]1[C@H](O)CS[C@H]1c1cnc2c(NCCc3cccc(F)c3)nccn12 [Compound 127, (2S,3R,4S)-2-(8-((3-fluorophenethyl)amino)imidazo[1,2-a]pyrazin-3-yl)tetrahydrothiophene-3,4-diol] | > 10 | > 10
19 | O[C@@H]1[C@H](O)CS[C@H]1c1cnc2c(NCc3cccc(Cl)c3)nccn12 [Compound 109, (2S,3R,4S)-2-(8-((3-chlorobenzyl)amino)imidazo[1,2-a]pyrazin-3-yl)tetrahydrothiophene-3,4-diol] | > 10 | 1 to 10
20 | O[C@@H]1[C@H](O)CS[C@H]1c1nnc2c(NCCc3cccc(F)c3)nccn12 [Compound 26, (2S,3R,4S)-2-(8-((3-fluorophenethyl)amino)-[1,2,4]triazolo[4,3-a]pyrazin-3-yl)tetrahydrothiophene-3,4-diol] | > 10 | > 10
21 | O[C@@H]1[C@H](O)CS[C@H]1c1cnc2c(C#Cc3cccc(Cl)c3)nccn12 [Compound 159, (2S,3R,4S)-2-(8-((3-chlorophenyl)ethynyl)imidazo[1,2-a]pyrazin-3-yl)tetrahydrothiophene-3,4-diol] | 1 to 10 | > 10
22 | O[C@@H]1[C@H](O)CO[C@H]1c1nnc2c(NCCc3cccc(Cl)c3)nccn12 [Compound 39, (2S,3R,4R)-2-(8-((3-chlorophenethyl)amino)-[1,2,4]triazolo[4,3-a]pyrazin-3-yl)tetrahydrofuran-3,4-diol] | > 10 | > 10
23 | O[C@@H]1[C@H](O)CS[C@H]1c1cnc2c(NCCc3ccc(F)cc3)nccn12 [Compound 170, (2S,3R,4S)-2-(8-((4-fluorophenethyl)amino)imidazo[1,2-a]pyrazin-3-yl)tetrahydrothiophene-3,4-diol] | > 10 | > 10
24 | O[C@@H]1[C@H](O)CS[C@H]1c1cnc2c(N3CCN(Cc4ccc(F)cc4)CC3)nccn12 [Compound 119, (2S,3R,4S)-2-(8-(4-(4-fluorobenzyl)piperazin-1-yl)imidazo[1,2-a]pyrazin-3-yl)tetrahydrothiophene-3,4-diol] | > 10 | > 10
25 | O[C@@H]1[C@H](O)CS[C@H]1c1cnc2c(NCc3cccc(I)c3)nccn12 [Compound 124, (2S,3R,4S)-2-(8-((3-iodobenzyl)amino)imidazo[1,2-a]pyrazin-3-yl)tetrahydrothiophene-3,4-diol] | > 10 | > 10
26 | C[C@H](Nc1nccn2c([C@@H]3SC[C@@H](O)[C@H]3O)nnc12)c1cccc(Cl)c1 [Compound 45, (2S,3R,4S)-2-(8-(((S)-1-(3-chlorophenyl)ethyl)amino)-[1,2,4]triazolo[4,3-a]pyrazin-3-yl)tetrahydrothiophene-3,4-diol] | > 10 | > 10
27 | O[C@@H]1[C@H](O)CS[C@H]1c1cnc2c(NCc3cccc(F)c3)nccn12 [Compound 122, (2S,3R,4S)-2-(8-((3-fluorobenzyl)amino)imidazo[1,2-a]pyrazin-3-yl)tetrahydrothiophene-3,4-diol] | > 10 | > 10
28 | O[C@@H]1[C@H](O)CS[C@H]1c1cnc2c(NCc3cccc(Br)c3)nccn12 [Compound 132, (2S,3R,4S)-2-(8-((3-bromobenzyl)amino)imidazo[1,2-a]pyrazin-3-yl)tetrahydrothiophene-3,4-diol] | 1 to 10 | 1 to 10
29 | O[C@@H]1[C@H](O)CS[C@H]1c1cnc2c(NCc3ccc(Cl)cc3)nccn12 [Compound 164, (2S,3R,4S)-2-(8-((4-chlorobenzyl)amino)imidazo[1,2-a]pyrazin-3-yl)tetrahydrothiophene-3,4-diol] | > 10 | > 10
30 | O[C@@H]1[C@H](O)CS[C@H]1c1nnc2c(NCCc3cccc(Cl)c3)nccn12 [Compound 24, (2S,3R,4S)-2-(8-((3-chlorophenethyl)amino)-[1,2,4]triazolo[4,3-a]pyrazin-3-yl)tetrahydrothiophene-3,4-diol] | > 10 | > 10
31 | CNC(=O)c1ccc(CNc2nccn3c([C@@H]4SC[C@@H](O)[C@H]4O)cnc23)cc1Cl [Compound 126, 2-chloro-4-(((3-((2S,3R,4S)-3,4-dihydroxytetrahydrothiophen-2-yl)imidazo[1,2-a]pyrazin-8-yl)amino)methyl)-N-methylbenzamide] | > 10 | > 10
32 | O[C@@H]1[C@H](O)CS[C@H]1c1cnc2c(NCCc3cccc(Cl)c3)nccn12 [Compound 146, (2S,3R,4S)-2-(8-((3-chlorophenethyl)amino)imidazo[1,2-a]pyrazin-3-yl)tetrahydrothiophene-3,4-diol] | > 10 | > 10
33 | O[C@@H]1[C@H](O)CS[C@H]1c1cnc2c(N3CCC(Cc4ccccc4)CC3)nccn12 [Compound 118, (2S,3R,4S)-2-(8-(4-benzylpiperidin-1-yl)imidazo[1,2-a]pyrazin-3-yl)tetrahydrothiophene-3,4-diol] | > 10 | > 10
